This is an account of results in ChEMBL document CHEMBL1145813, “Synthesis and evaluation of 11C-labeled 6-substituted 2-arylbenzothiazoles as amyloid imaging agents” (J Med Chem, 2003).

By UniProt entry, the sequences of proteins in these tests, tags left out.
UniProt P05067, whole entry: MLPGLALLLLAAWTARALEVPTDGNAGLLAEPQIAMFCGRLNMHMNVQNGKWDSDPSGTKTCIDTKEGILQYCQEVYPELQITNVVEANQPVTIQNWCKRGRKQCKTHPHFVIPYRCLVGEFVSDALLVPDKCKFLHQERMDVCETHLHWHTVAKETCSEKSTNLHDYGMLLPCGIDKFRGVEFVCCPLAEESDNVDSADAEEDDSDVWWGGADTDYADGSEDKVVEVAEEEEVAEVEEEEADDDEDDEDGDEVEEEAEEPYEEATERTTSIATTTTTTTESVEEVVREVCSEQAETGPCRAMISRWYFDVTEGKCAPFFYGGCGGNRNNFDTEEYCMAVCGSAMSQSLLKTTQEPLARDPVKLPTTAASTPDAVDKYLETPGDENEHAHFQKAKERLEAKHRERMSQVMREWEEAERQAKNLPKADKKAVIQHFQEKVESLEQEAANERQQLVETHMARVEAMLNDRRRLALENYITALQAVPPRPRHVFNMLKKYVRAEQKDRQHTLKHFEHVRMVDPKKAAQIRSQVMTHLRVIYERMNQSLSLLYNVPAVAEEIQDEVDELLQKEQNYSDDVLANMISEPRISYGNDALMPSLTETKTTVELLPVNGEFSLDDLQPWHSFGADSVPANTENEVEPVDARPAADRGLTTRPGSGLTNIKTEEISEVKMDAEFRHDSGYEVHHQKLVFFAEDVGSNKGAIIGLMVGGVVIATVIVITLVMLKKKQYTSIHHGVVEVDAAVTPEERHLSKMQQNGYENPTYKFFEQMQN

In this test the target is Amyloid-beta precursor protein (Homo sapiens, UniProt P05067). The test is described as follows: Binding affinity for Amyloid beta 1-40 aggregates fibrils in competition with BTA-1.

`Cc1ccc2c(c1)sc(-c1ccc(N(C)C)cc1)[n+]2C` came in with an inhibitory constant (Ki) of 580 nM.
